# Screening data deposited in PubChem BioAssay by National Center for Advancing Translational Sciences (NCATS).
# Nrf2 block: inhibitors of Nrf2 signaling. AID 504444. A549 ARE-Fluc reporter, luciferase luminescence, 18-24 h. hit rate 2.1% among 360,000. Potency, µM (top dose mostly 46 µM), for inactives: at the highest dose activity change, negative = inhibition, most hits filed as inhibitors; note: potency is the fitted concentration of half-maximal effect; % is set by controls: 0 for no effect and ±100 for the full control effect; nearly all actives have a fitted effect of over 60% in size
#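 Cells were seeded and rested 2 h, then exposed to compounds for 18-24 h. CellTiter-Fluor was read first as a viability measure. BugLite was added 15 min before the final luminescent read of ARE-luciferase activity in A549 cells.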
# A549 viability: counter-screen for Nrf2 inhibitors: cytotoxicity in A549 cells | A549 ARE-Fluc cells, CellTiter-Fluor viability, 18-24 h | Potency, µM (top dose mostly 46 µM), for inactives: top-dose activity change, negative = cytotoxicity, usual class: inhibitors | hit rate 0.16% among 390,000 | AID 504648; note: potency is the fitted concentration of half-maximal effect; % is set by controls: 0 for no effect and ±100 for the full control effect
#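 A549 ARE_Fluc cells in 5% FBS OPTI-MEM were exposed to compounds in concentration-response for 18-24 h at 37 deg C. Viability was read by CellTiter-Fluor fluorescence (Ex 405/Em 525) after 30 min, before the luciferase read.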
# Glioma ERSR ind: induces the endoplasmic reticulum stress response in human glioma cells; U87-MG GRP78 promoter luciferase reporter, 16 h; Potency, µM, for inactives: at the top dose activation, actives largely listed as activators; hit rate 0.02% among 420,000; note: potency is the fitted concentration of half-maximal effect; series mostly up to about 76 µM; % of control where 0% means no effect; nearly all actives have a fitted effect of over 35% in size
#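 Stably transfected U87-MG glioma cells carrying a GRP78-based luciferase sensor; 16 h compound incubation. Luminescence end-point read 10 min after Bright-Glo addition at room temperature.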
# Nrf2 ARE act: Nrf2 pathway activation. hit rate 0.31% among 410,000. Potency, µM (series often up to 46.1 µM), inactives show at the highest dose activation, most hits filed as activators. AREc32 ARE-luciferase reporter (MCF7-derived line), luminescence, 24 h; note: potency is the fitted concentration of half-maximal effect; % of control where 0% means no effect; nearly all actives have a fitted effect of over 65% in size
#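 Steps: seed AREc32_Fluc cells (1000/well, 5% FBS OPTI-MEM); incubate overnight at 37 deg C; add 23 nL compound; incubate 24 hr; add Steady-Glo; hold 30 min RT; read luminescence.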
# miR-21 reporter: raises the signal of a miR-21 reporter | AID 2288 | 340,000 tested, under 10 active | Potency, µM (series often up to 38.3 µM), without a hit: at the highest dose reporter change, positive = more light | HeLa miR-21 FLuc reporter, luciferase, 48 h; active = well fitted rising curve with a large enough effect; inconclusive = small, poorly fitted or top-dose-only effect; inactive = no such curve, though single readings can be large or run the other way;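 further: % of control where 0% means no effect; miR-21 action dims this reporter so a rising signal means less miR-21 action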
#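 HeLa cells endogenously expressing miR-21, stably carrying CMV-driven firefly luciferase with a downstream miR-21 binding site, 2000 cells/well. Titrations up to approximately 40 uM, 48 hours; luciferase luminescence read.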
# Mito fusion act: blocks mitochondrial division or promotes mitochondrial fusion; S. cerevisiae fusion-defective mutant growth rescue, CellTiterGlo 48 h; Potency, µM (series often up to 46.1 µM), for inactives: top-dose growth rescue (activation), hits mostly activators; hit rate 0.23% among 320,000; AID 485298; note: potency is the fitted concentration of half-maximal effect; % of control where 0% means no effect; nearly all actives have a fitted effect of over 45% in size
#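 Yeast fusion mutant, YPEG (non-fermentable carbon), compound, 48 h at 37C non-permissive; CellTiterGlo added, 10 min RT, luminescence read. Rescued growth = division inhibition.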
# The depositor's hits bear a star; ? = inconclusive; . = no result given. The list is not random: actives were taken first. Their share in the collection is about 2.3%. Unless noted, calls come from the whole dose curve; as a rule, active = well fitted curve in the direction sought with a large enough effect; inconclusive = small, poorly fitted or top-dose-only effect, or another doubt; inactive = no such curve, though single readings can be large; an effect the other way counts as inactive or inconclusive.
(1) O=C(Nc1nc(-c2ccccn2)cs1)c1ccc(-c2ccccc2F)o1
(2) Cc1ccc(C(=O)Nc2nc(-c3ccccn3)cs2)o1
(3) CCc1ccccc1NC(=O)C1CCN(S(=O)(=O)c2cn(C)cn2)CC1
(4) COc1cccc(N2CCN(C(=O)c3nc4nc(C)cc(C)n4n3)CC2)c1
(5) NC(=O)CC(NC(=O)c1ccccc1)c1ccc(N2CCC(Cc3ccccc3)CC2)c([N+](=O)[O-])c1 (stereo not drawn)
(6) c1ccc(-c2nc(NCc3ccco3)c3ccccc3n2)nc1
(7) O=C(O)c1ccc(Nc2ccc(Cl)c(Cl)c2)c([N+](=O)[O-])c1
(8) O=C(O)c1ccc(Nc2ncc([N+](=O)[O-])cc2[N+](=O)[O-])cc1
(9) CCSc1nnc(C)n1-c1ccc(C(=O)O)cc1
(10) CCN=c1scc(C)n1/N=C/c1ccsc1

screen / no.,1,2,3,4,5,6,7,8,9,10
Nrf2 block,?,-26%,.,-8%,10µM*,21µM*,?,-13%,.,?
A549 viability,?,1%,2%,-3%,?,-26%,?,18µM*,14%,-2%
Glioma ERSR ind,32µM*,4%,-1%,-5%,-3%,-8%,3%,-6%,0%,0%
Nrf2 ARE act,6%,2%,-1%,0%,0%,8%,3%,4%,0%,7.1µM*
miR-21 reporter,.,21%,-3%,-1%,24%,?,-1%,0%,0%,-58%
Mito fusion act,-3%,-10%,.,5%,-1%,0%,14µM*,1%,0%,3%

(11) NC(=O)c1ccccc1NC(=S)NC(=O)c1ccc(Br)o1
(12) Cn1c(=O)n(C)c2cc(S(=O)(=O)Nc3ccccc3)ccc21
(13) Cn1c(=O)n(C)c2cc(NS(=O)(=O)c3ccccc3)ccc21
(14) Cn1c(=O)oc2cc(S(=O)(=O)Nc3cccc(F)c3)ccc21
(15) CSc1cccc(NS(=O)(=O)c2ccc3c(c2)oc(=O)n3C)c1
(16) CCOC(=O)c1ccc(NS(=O)(=O)c2ccc(SC)cc2)cc1
(17) CCOC(=O)c1ccccc1NS(=O)(=O)c1ccc(C)cc1
(18) CCOC(=O)c1ccccc1NS(=O)(=O)c1ccccc1
(19) Cc1cc(C)nc(NS(=O)(=O)c2ccc(NC(=O)c3ccccc3O)cc2)n1
(20) CCOc1ccc(S(=O)(=O)Nc2ccc3c(c2)n(C)c(=O)n3C)cc1

screen / no.,11,12,13,14,15,16,17,18,19,20
Nrf2 block,?,23µM*,?,6%,26µM*,23µM*,-30%,23µM*,16%,16µM*
A549 viability,0%,-7%,1%,6%,-5%,?,-15%,?,1%,2%
Glioma ERSR ind,5%,-1%,-3%,-3%,-2%,-3%,-3%,0%,-3%,-1%
Nrf2 ARE act,14µM*,5%,17%,0%,-1%,0%,-1%,-1%,0%,5%
miR-21 reporter,-43%,-3%,-6%,-4%,-2%,-3%,21%,-3%,-18%,18%
Mito fusion act,-1%,1%,6%,5%,8%,20µM*,7%,18%,.,3%

(21) CCOC(=O)c1ccc(NS(=O)(=O)c2ccc3c(c2)n(C)c(=O)n3C)cc1
(22) CCOC(=O)c1ccc(NS(=O)(=O)c2ccc3c(c2)CCN3C(=O)CC)cc1
(23) CCC(=O)N1CCc2cc(S(=O)(=O)Nc3ccc4c(c3)OCCO4)ccc21
(24) CCOC(=O)C1CCCN(S(=O)(=O)c2ccc3c(c2)CCN3C(=O)CC)C1 (stereo not drawn)
(25) CCOC(=O)c1ccc(NS(=O)(=O)c2ccc3c(c2)CCCN3C(C)=O)cc1
(26) O=C(Nc1ccccn1)C1COc2ccccc2O1 (stereo not drawn)
(27) CC1Oc2ccccc2OC1C(=O)Nc1ccccn1 (stereo not drawn)
(28) Cc1ccc(C(=O)CN(CCC(=O)O)S(=O)(=O)c2ccc([N+](=O)[O-])cc2)cc1
(29) O=C(NC1CCN(Cc2ccccc2)CC1)c1ccc(S(=O)(=O)NCc2ccco2)cc1
(30) Cc1ccccc1C(=O)NC1CCN(Cc2ccccc2)CC1

screen / no.,21,22,23,24,25,26,27,28,29,30
Nrf2 block,21µM*,26µM*,21µM*,9.2µM*,?,?,11%,2%,6.5µM*,1%
A549 viability,11%,1%,-17%,0%,-16%,-3%,10%,-4%,-12%,0%
Glioma ERSR ind,-5%,-3%,1%,-4%,2%,6%,-5%,1%,-2%,-3%
Nrf2 ARE act,5%,-1%,1%,0%,0%,9%,7.1µM*,-2%,0%,0%
miR-21 reporter,1%,-2%,14%,-4%,-5%,-48%,-2%,.,20%,-2%
Mito fusion act,1%,.,-2%,.,6%,0%,28%,-6%,-3%,2%

(31) O=C(Nc1ccc(S(=O)(=O)NCc2ccco2)cc1)c1ccncc1
(32) Cc1cccc(NS(=O)(=O)c2ccc(C)c(C(=O)NC3CCN(Cc4ccccc4)CC3)c2)c1
(33) Cc1ccc(C(=O)NC(=S)NNS(=O)(=O)c2ccccc2)cc1
(34) Cc1cccc(OCCC(=O)Nc2nnc(C)s2)c1
(35) C=CCOC(=O)C1=C(C)NC(=S)NC1/C=C/c1ccccc1 (stereo not drawn)
(36) CC1=C(C(=O)OCc2ccccc2)C(/C=C/c2ccccc2)NC(=S)N1 (stereo not drawn)
(37) COc1cc(NC(=O)c2ccc(OC)c([N+](=O)[O-])c2)ccc1NC(=O)c1cccs1
(38) O=C(Nc1ccccc1F)c1cc(S(=O)(=O)N2CCOCC2)cs1
(39) OC(COc1ccc(OCC(O)CN2CCCCCC2)cc1)CN1CCCCCC1 (stereo not drawn)
(40) COc1ccc(OCC(O)CN2CCCCCC2)cc1 (stereo not drawn)

screen / no.,31,32,33,34,35,36,37,38,39,40
Nrf2 block,13µM*,8.2µM*,20%,-4%,?,?,?,7%,.,3%
A549 viability,-4%,7%,8%,-2%,-1%,0%,-11%,-4%,2.6µM*,0%
Glioma ERSR ind,-1%,-4%,3%,-8%,-1%,-6%,-4%,-5%,-2%,-3%
Nrf2 ARE act,7%,7%,5%,5%,3%,0%,1%,2%,-1%,0%
miR-21 reporter,-1%,.,-3%,-2%,19%,18%,-7%,0%,-17%,-1%
Mito fusion act,-2%,.,-8%,-5%,-2%,16µM*,-3%,-1%,-3%,-2%

# Printed as active in Mito fusion act, of those listed so far:
no. | structure | Glioma ERSR ind | miR-21 reporter | Mito fusion act
7 | O=C(O)c1ccc(Nc2ccc(Cl)c(Cl)c2)c([N+](=O)[O-])c1 | 3% | -1% | 14µM*
16 | CCOC(=O)c1ccc(NS(=O)(=O)c2ccc(SC)cc2)cc1 | -3% | -3% | 20µM*
36 | CC1=C(C(=O)OCc2ccccc2)C(/C=C/c2ccccc2)NC(=S)N1 (stereo not drawn) | -6% | 18% | 16µM*

# The results go on.
(41) CCC(c1nnnn1C1CCCCC1)N(Cc1ccco1)Cc1cc2ccc(OC)cc2[nH]c1=O (stereo not drawn)
(42) COc1cc(/C=C/c2cc(OC(C)=O)c3ccccc3n2)c(OC(C)=O)c([N+](=O)[O-])c1
(43) CSc1ccc(C(=O)C2CCCN(C(=O)c3nn(C)c(=O)c4ccccc34)C2)cc1 (stereo not drawn)
(44) Cc1nc(C)c(C(=O)NCCC(c2ccccc2)c2ccccc2)o1

screen / no.,41,42,43,44
Nrf2 block,23µM*,?,18µM*,10µM*
A549 viability,?,15µM*,-18%,-22%
Glioma ERSR ind,-2%,-2%,2%,-1%
Nrf2 ARE act,2%,3%,3%,1%
miR-21 reporter,-6%,0%,-1%,20%
Mito fusion act,?,-1%,-2%,-6%
